Tests used:
Assay type in all cases: cell-based
U-937 renal cancer cells = assay: MTT cytotoxicity assay, U-937; settings: SI = IC50 normal cells (Vero)/IC50 cancer cells;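 note: Six-dose MTT colorimetric assay on cell monolayers, formazan absorbance read at 560 nm with 620 nm background removed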
Procedure: All newly synthetic compounds were tested for cytotoxicity using a six-dose MTT colorimetric assay on three cancer cell lines; namely, breast cancer cells (MDA-MB-231), colorectal adenocarcinoma cells (HT-29) and renal cancer cells (U-937). […] The cytotoxicity of the tested compounds against the selected cancer cell lines was compared to Methotrexate as a reference drug, and the results are shown in Table 1 as a mean of IC50 values. […] However, renal cancer cells (U-937) were discovered to be the least sensitive. […]
(§1) The cell lines were supplied by ATCC (American Type Culture Collection). […] The cytotoxic activities of the examined compounds were quantified by inoculating a 96-well tissue culture plate with 1 X 10^5 cells / mL (100 uL/well) and incubating it at 37°C for 24 hours to develop a complete monolayer sheet. […] The optical density was measured at 560 nm, and the background was subtracted at 620 nm. Finally, the IC50 of the test compound in comparison to the reference was calculated using the GraphPad Prism software. […]
PLK1 inhibitory activity, with Volasertib acting as the reference drug. The BRD4 and PLK1 inhibitory assays were carried out in vitro in accordance with the manufacturer's instructions; BRD4 was assessed using AlphaLISA Bromodomain Assay Protocol, and PLK1 kinase was tested using the ADP-Glo™ Kinase Assay Protocol, […]

[1] = test system: MDA-MB-231 breast cancer cells; assay: MTT cytotoxicity assay, MDA-MB-231; settings: SI = IC50 normal cells (Vero)/IC50 cancer cells; ≥5 highly, >2 moderately, <2 non-selective
Procedure: (§2) All newly synthetic compounds were tested for cytotoxicity using a six-dose MTT colorimetric assay on three cancer cell lines; namely, breast cancer cells (MDA-MB-231), colorectal adenocarcinoma cells (HT-29) and renal cancer cells (U-937). […] The cytotoxicity of the tested compounds against the selected cancer cell lines was compared to Methotrexate as a reference drug, and the results are shown in Table 1 as a mean of IC50 values. […] However, renal cancer cells (U-937) were discovered to be the least sensitive.
(§3) Using a six-dose MTT colorimetric assay, all new synthetic compounds were tested for cytotoxicity against three cancer cell lines: MDA-MB-231 breast cancer cells, HT-29 colorectal adenocarcinoma cells, and U-937 renal cancer cells. […]
as §1

[2] = test system: HT-29 colorectal adenocarcinoma cells; assay: MTT cytotoxicity assay, HT-29; settings: SI = IC50 normal cells (Vero)/IC50 cancer cells
Procedure: as §2, §3, §1

Which results are given for CN(Cc1cnc2nc(N)nc(N)c2n1)c1ccc(C(=O)N[C@@H](CCC(=O)O)C(=O)O)cc1 [Methotrexate, reference compound]?
Selectivity Indices (SI) U-937 (U-937 renal cancer cells): 8.33; Selectivity Indices (SI) MDA-MB-231 [1]: 3.64; Selectivity Indices (SI) HT-29 [2]: 10.26
